Experimental data: ChEMBL document CHEMBL1949581, “Anion inhibition studies of an α-carbonic anhydrase from the living fossil Astrosclera willeyana” (Bioorg Med Chem Lett, 2012)
pKi: −log10 of the molar value.

Amino acid sequences for entries named in this document (tags omitted). Residues count along the entry.
UniProt A6YCJ1, 23-292 limits assumed: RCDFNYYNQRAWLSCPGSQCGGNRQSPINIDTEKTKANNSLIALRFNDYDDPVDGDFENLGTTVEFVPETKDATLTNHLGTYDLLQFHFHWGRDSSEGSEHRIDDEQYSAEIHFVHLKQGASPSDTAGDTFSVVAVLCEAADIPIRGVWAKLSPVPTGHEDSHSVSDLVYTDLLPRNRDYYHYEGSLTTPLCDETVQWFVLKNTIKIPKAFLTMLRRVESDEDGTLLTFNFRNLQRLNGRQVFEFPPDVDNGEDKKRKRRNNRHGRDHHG

Molecular target: Astrosclerin-3 (Astrosclera willeyana, UniProt A6YCJ1)
Test: Inhibition of Astrosclera willeyana recombinant GST-tagged astrosclerin 3 expressed in Escherichia coli BL21-DE3-RIPL cells preincubated for 15 mins measured for 10 to 100 secs by stopped flow CO2 hydration assay

O=[As](O)(O)c1ccccc1
pKi: 4.14
